These results are taken from ChEMBL document CHEMBL1127469, “Decapeptide agonists of human C5a: the relationship between conformation and spasmogenic and platelet aggregatory activities” (J Med Chem, 1994).

The species entered for one test is Cavia porcellus. The test can be described thus: Platelet aggregation in guinea pig. It counts as functional. The essentials: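 Platelet-rich plasma from arterial blood of anesthetized male Hartley guinea pigs, diluted to 3 × 10^8 platelets/mL in 0.39% sodium citrate. Peptides are serially diluted 1.5-fold and shaken with plasma and a 3 mm glass bead at 100 rpm, 5 min, 37 °C. Aggregation is scored visually at 40×. The threshold is the greatest dilution giving visible aggregation. At least three independent duplicate runs; C5a and C3a serve as standards.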

Test [1] concerns the target T1, C5a anaphylatoxin chemotactic receptor 1 (Homo sapiens) (UniProt P21730).
T1 sequence (whole entry): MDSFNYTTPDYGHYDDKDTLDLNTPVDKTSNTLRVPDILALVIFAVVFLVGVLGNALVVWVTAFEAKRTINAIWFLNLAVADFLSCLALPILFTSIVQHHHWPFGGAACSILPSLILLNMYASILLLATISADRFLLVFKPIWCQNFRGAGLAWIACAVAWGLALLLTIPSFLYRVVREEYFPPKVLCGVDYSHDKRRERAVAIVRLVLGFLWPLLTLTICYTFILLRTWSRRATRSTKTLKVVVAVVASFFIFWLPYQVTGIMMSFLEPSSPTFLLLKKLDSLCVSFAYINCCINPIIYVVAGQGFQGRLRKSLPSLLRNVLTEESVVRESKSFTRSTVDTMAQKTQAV
The test can be described thus: Pharmacological activity against C5a receptor in human fetal artery. An outline of the steps: (§1)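 Isometric contraction of tissue strips in 2 mL organ baths of Krebs-Ringers solution, 37 °C, pH 7.4, gassed with 95% O2/5% CO2, equilibrated 1 h. Tachyphylaxis prevents cumulative curves, so each strip gets one peptide concentration, then histamine 10 μM. Response is taken as % of the histamine maximum. EC50 comes from probit analysis, reported as pD2 (-log EC50, M), mean ± SE.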

The species named for a further test is Homo sapiens. The test can be described thus: Effective dose required for smooth muscle contraction in human fetal artery. It counts as functional. Particulars: Muscle tissue. The essentials:
as §1

In turn, `CSCC[C@H](NC(=O)[C@H](CC(=O)O)NC(=O)[C@H](CCCCN)NC(=O)[C@H](Cc1ccccc1)NC(=O)[C@H](CO)NC(=O)[C@@H](N)Cc1ccc(O)cc1)C(=O)N1CCC[C@H]1C(=O)N[C@@H](CC(C)C)C(=O)N1CCC[C@@H]1C(=O)N[C@@H](CCCN=C(N)N)C(=O)O` gave a Platelet aggregation in the test filed under Cavia porcellus of 2.7 µM. For the same molecule, the pD2 in test [1] came out at 5.57. The molecule also showed an EC50 in the test listed under Homo sapiens of 3.7 µM.
For `CSCC[C@H](NC(=O)[C@H](CC(=O)O)NC(=O)[C@H](CCCCN)NC(=O)[C@H](Cc1ccccc1)NC(=O)[C@H](CO)NC(=O)[C@@H](N)Cc1ccc(O)cc1)C(=O)N1CCC[C@H]1C(=O)N[C@@H](C)C(=O)N[C@H](C)C(=O)N[C@@H](CCCN=C(N)N)C(=O)O` [listing 1 of 2 here], the EC50 in the test listed under Homo sapiens was found to be 17.9 µM.
Molecule `CSCC[C@H](NC(=O)[C@H](CC(=O)O)NC(=O)[C@H](CCCCN)NC(=O)[C@H](Cc1ccccc1)NC(=O)[C@H](CO)NC(=O)[C@@H](N)Cc1ccc(O)cc1)C(=O)N1CCC[C@H]1C(=O)N[C@@H](C)C(=O)N[C@H](C)C(=O)N[C@@H](CCCN=C(N)N)C(=O)O` [listing 2 of 2 here] showed a Platelet aggregation in the test listed under Cavia porcellus of 90 µM.
With `CC(C)C[C@H](NC(=O)[C@@H]1CCCN1C(=O)[C@H](C)NC(=O)[C@H](CC(=O)O)NC(=O)[C@H](CCCCN)NC(=O)[C@H](Cc1ccccc1)NC(=O)[C@H](CO)NC(=O)[C@@H](N)Cc1ccc(O)cc1)C(=O)N[C@H](C)C(=O)N[C@@H](CCCN=C(N)N)C(=O)O`, the Platelet aggregation in the test listed under Cavia porcellus was 0.54 µM. Also, the pD2 in test [1] is 6.57. For the same molecule, the response in the test filed under Homo sapiens was half-maximal at 0.33 µM (EC50).
For `CSCC[C@H](NC(=O)[C@H](CC(=O)O)NC(=O)[C@H](CCCCN)NC(=O)[C@H](Cc1ccccc1)NC(=O)[C@H](CO)NC(=O)[C@@H](N)Cc1ccc(O)cc1)C(=O)N1CCC[C@H]1C(=O)N[C@@H](CC(C)C)C(=O)N[C@H](Cc1ccccc1)C(=O)N[C@@H](CCCN=C(N)N)C(=O)O` the same measures were 2.3 µM, 4.53 and 51.1 µM.
